Literature values as cited in paper PMC9489682, “Synthesis and comparative evaluation of ^177Lu-labeled PEG and non-PEG variant peptides as HER2-targeting probes” (Scientific Reports, 2022).

Test system: SKOV3 cells
Conditions: cited from earlier work
Description: Uptake of [^177Lu]DOTA-A9 and [^177Lu]DOTA-PEG4-A9 in HER2-negative, MDA-MB-231 cells was 0.28 ± 0.05% and 0.39 ± 0.15% respectively.

In the case of “[^177Lu]DOTA-Trastuzumab: Lu-177 labeled DOTA conjugate of the HER2-targeted antibody trastuzumab, previously reported by the group”, the Bmax is given as 31.09 pmol per 10^6 cells and the Kd (read-out: Binding affinity Kd) is given as 13.6 nM.
